These are literature values, as cited in article PMC3586205 (2012).

SMILES strings stand for the structures.

This data set deals with ring immobility in mice. The following applies: 10 mg/kg i.v.; ref Wiley et al. (2012); cited from earlier work.

For the compound `Cc1c(C(=O)NN2CCCCC2)nn(-c2ccc(Cl)cc2Cl)c1-c1ccc(Cl)cc1` [Rimonabant, reference compound], the “RI, % time immobile on elevated ring (maximum effect)” value was “inactive (10)”.
